ARFGAP1 inh: inhibitors of rat ARFGAP1 GAP activity, primary screen, biochemical, fluorescence polarization, GDP tracer | ADP-ribosylation factor GTPase-activating protein 1 (Rattus norvegicus), Q62848 | Arfgap1-stimulated ARF1 GTP hydrolysis, GDP FP detection | inhibition, % at 16.5 µM | 360,000 compounds, 0.26% hits | AID 651572, 2012;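 active = inhibition above a per-plate limit, mean inhibition of low control wells plus 3 SD, cut at about 25% in these data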;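 also: 0% = DMSO wells with enzyme and 100% = wells lacking Arfgap1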
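Material: rat Arfgap1 GAP domain (His6, aa 1-136), purified enzyme. Also added: human ARF1(Δ1-17)-GTP substrate. Compound dosing: 16.5 µM single point, 1.26% DMSO. Timing: enzyme reaction 120 min at 25 °C after 20 min preincubation. Signal: GDP detection by fluorescence polarization. Read-out basis: percent inhibition of GAP-stimulated GDP formation, scaled between DMSO and no-Arfgap1 medians.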
CendR NRP1 mod: modulators of CendR peptide binding to NRP-1, primary screen, biochemical, fluorescence polarization, uHTS; 360,000 compounds, 0.85% hits; inhibition, % at 25 µM; AID 602438, 2012; Neuropilin-1 (Homo sapiens), O14786; FAM-RPARPAR peptide binding to NRP-1;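 active = inhibition or corrected inhibition above about 18%, plus a signal ratio from 0.5 to 1.5, limit read from the data, passing the limit was not always enough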
MC4R barr agon: MC4R agonists recruiting beta-arrestin, primary screen, cell-based, luminescence, agonist arm of biased-ligand search. U2OS MC4R beta-arrestin complementation; percent of melanotan II response, DMSO zero. activation, % at 8.9 µM. 360,000 compounds, 0.98% hits. AID 540308, 2011;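 active = activation above a per-plate cutoff, the mean activation of sample wells on that plate plus 3 SD, cut at about 8% in these data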
ASAP1 inh: inhibitors of human ASAP1 ArfGAP activity, primary screen, biochemical, fluorescence polarization. Arf-GAP with SH3 domain, ANK repeat and PH domain-containing protein 1 (Homo sapiens), …. ASAP1-stimulated ARF1 GTP hydrolysis, GDP FP detection. inhibition, % at 16.5 µM. 360,000 compounds, 0.19% hits; in the data active = inhibition above about 25%;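 also: 0% = vehicle with enzyme and substrate and 100% = no enzyme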
MC4R antagonist: MC4R antagonists of cAMP signaling, primary screen, cell-based, TR-FRET, antagonist arm of biased-ligand search; Melanocortin receptor 4 (Homo sapiens), P32245; 360,000 compounds, 0.48% hits; MC4R-expressing cells, MTII-stimulated cAMP, LANCE TR-FRET; inhibition, % at 6.5 µM;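 active = inhibition above its plate's cutoff, the mean of tested wells on that plate plus 3 SD, cut at about 29% in these data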;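 also: 0% = Melanotan II alone and 100% = Melanotan II plus saturating MCL0020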
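Material: U2OS-MC4R stable cell line | Reagent: Melanotan II challenge after compound preincubation | Doses: One concentration, 6.5 µM nominal | Incubation: 30-min compound preincubation, 1-h Melanotan II challenge, 1-h detection, room temperature | Signal: TR-FRET cAMP assay | Replicates: One well per compound, no replicates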
UUG fidelity: modulators of yeast start codon fidelity, primary screen, whole organism, S. cerevisiae, single point, plate reader | S. cerevisiae UUG-firefly luciferase reporter, luminescence/redox ratio | activity score, % at 18.7 µM | hit rate 0.13% among 350,000;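 active = replicate mean at a twofold rise or more, about +100% in these data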;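 note: firefly luciferase made from a UUG start codon reports start codon fidelity; reporter light over untreated wells divided by growth signal over untreated wells; some hits fall short of that in this replicate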
* marks the source's active call; other numbers are inactive results; / = no result given. In the library only some 2.3% were active in any assay of this set; here they are far more common.

Chains of the proteins cited; added tags and fusions are not shown. Residues count along the entry.
ADP-ribosylation factor GTPase-activating protein 1 (Rattus norvegicus), Q62848, UniProt Q62848, whole entry, looked up: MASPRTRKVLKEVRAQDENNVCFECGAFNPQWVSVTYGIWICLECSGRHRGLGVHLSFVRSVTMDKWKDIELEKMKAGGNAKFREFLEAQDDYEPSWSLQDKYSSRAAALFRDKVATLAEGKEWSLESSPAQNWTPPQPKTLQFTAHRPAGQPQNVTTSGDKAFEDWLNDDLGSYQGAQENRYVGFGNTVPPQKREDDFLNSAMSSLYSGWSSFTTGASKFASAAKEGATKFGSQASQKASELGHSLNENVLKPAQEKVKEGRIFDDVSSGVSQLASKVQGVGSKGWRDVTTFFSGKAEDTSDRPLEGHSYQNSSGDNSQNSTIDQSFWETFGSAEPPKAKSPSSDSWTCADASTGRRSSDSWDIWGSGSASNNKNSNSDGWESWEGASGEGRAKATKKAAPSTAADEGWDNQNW
ADP-ribosylation factor GTPase-activating protein 1 (Rattus norvegicus), Q62848, UniProt Q62848, 1-136 limits assumed: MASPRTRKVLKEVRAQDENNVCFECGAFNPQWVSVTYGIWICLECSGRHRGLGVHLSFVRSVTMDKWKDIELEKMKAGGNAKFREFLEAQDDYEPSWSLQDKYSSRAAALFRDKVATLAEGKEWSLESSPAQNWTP
Neuropilin-1 (Homo sapiens), O14786, UniProt O14786, whole entry, looked up: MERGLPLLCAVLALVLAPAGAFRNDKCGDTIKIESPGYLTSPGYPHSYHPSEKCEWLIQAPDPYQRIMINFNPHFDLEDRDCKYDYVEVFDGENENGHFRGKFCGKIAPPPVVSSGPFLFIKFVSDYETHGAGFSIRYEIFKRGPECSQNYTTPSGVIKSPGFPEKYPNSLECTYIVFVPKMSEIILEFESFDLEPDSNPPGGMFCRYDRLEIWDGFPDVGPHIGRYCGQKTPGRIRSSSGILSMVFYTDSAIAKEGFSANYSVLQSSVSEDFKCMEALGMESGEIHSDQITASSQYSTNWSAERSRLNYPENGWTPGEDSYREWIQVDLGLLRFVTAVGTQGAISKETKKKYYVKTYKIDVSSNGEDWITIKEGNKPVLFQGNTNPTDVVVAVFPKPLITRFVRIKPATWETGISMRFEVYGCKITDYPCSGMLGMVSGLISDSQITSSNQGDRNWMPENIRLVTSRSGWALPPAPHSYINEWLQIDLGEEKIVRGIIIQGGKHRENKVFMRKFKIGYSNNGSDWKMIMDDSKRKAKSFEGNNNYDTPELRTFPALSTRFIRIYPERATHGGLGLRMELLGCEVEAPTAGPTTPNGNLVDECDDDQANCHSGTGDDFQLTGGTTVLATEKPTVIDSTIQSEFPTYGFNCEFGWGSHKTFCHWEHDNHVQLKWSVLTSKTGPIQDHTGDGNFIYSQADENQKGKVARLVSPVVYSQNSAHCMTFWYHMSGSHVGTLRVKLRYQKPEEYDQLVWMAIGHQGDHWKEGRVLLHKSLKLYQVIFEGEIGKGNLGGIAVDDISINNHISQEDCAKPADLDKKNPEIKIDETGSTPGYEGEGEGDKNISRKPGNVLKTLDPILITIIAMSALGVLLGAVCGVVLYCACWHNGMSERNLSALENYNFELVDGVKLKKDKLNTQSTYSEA
Melanocortin receptor 4 (Homo sapiens), P32245, UniProt P32245, whole entry, looked up: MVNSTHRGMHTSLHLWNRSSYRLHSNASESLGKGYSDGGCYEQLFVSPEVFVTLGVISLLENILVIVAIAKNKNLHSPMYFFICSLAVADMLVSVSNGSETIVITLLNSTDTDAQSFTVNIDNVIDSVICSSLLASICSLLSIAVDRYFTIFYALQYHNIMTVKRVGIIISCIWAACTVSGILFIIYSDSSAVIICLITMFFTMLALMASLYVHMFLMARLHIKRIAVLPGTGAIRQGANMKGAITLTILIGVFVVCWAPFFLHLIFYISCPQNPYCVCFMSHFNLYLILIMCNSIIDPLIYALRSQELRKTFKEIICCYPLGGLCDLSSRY

ARFGAP1 inh	CendR NRP1 mod	MC4R barr agon	ASAP1 inh	MC4R antagonist	UUG fidelity	compound
14	41*	8.9*	-1	7	-21	O=C(Nc1cccc([N+](=O)[O-])c1)C1C2CC/C=C\CCC21 (centres undefined)
/	/	/	/	/	-5	COCC#Cc1cnc2c(c1)C(=O)N([C@@H](C)CO)C[C@@H](C)[C@H](CN(C)C(=O)c1cccnc1)O2
/	/	/	/	/	2	Cc1ccc(S(=O)(=O)Nc2ccc3c(c2)C(=O)N([C@H](C)CO)C[C@H](C)[C@@H](CN(C)C(=O)NC2CCCCC2)OCCCC[C@H](C)O3)cc1
-6	-5	-2	7	-1	-3	CCNc1nc(NCC)nc(SCCOC(=O)c2ccccc2)n1
8	12	8.9*	10	26	/	CCNc1nc(NCC)nc(SCCOC(=O)Nc2ccc(Cl)cc2Cl)n1
/	/	/	/	/	32	C[C@@H]1CN([C@@H](C)CO)C(=O)c2cccc(NC(=O)NC3CCCCC3)c2O[C@@H]1CN(C)C(=O)Nc1ccccc1
-9	28*	1	16	3	/	CC1(C)CCCN(C(=O)c2ccc3c(c2NCCO)C(=O)c2ccccc2C3=O)C1
-14	19*	-2	-2	-5	/	CC1CCCN(C(=O)c2ccc3c(c2NCCO)C(=O)c2ccccc2C3=O)C1 (centres undefined)
8	32*	0	-6	11	2	CCn1c(=NC(=O)CSCC(=O)Nc2nccs2)sc2ccccc21
15	-8	-1	1	-2	/	O=C(NN=C1CCCCCCC1)c1ccc(F)cc1
-6	28*	1	3	-4	17	O=C(NN=C1CCCCCCCCCCC1)c1ccccc1F
/	/	/	/	/	-17	C[C@@H]1CCCCO[C@@H](CN(C)S(=O)(=O)c2ccc(Cl)cc2)[C@H](C)CN([C@@H](C)CO)C(=O)c2cc(NC(=O)Nc3ccc4c(c3)OCO4)ccc2O1
-7	44*	4	3	0	-42	CCC(C)(C)c1ccc(Oc2ccc(N)cc2)cc1
1	2	-2	-6	1	/	CN(C)c1ccc(NC(=O)COC(=O)c2ccc3c(c2)OCO3)cc1
21	39*	-1	-2	-2	-10	CN(C)c1ccc(C(=O)OCC(=O)Nc2ccc(S(N)(=O)=O)cc2)cc1
-1	0	0	-16	9	-28	Cn1nnc2cc(NC(=O)Nc3ccccc3F)ccc21
-4	-18	8.7*	1	3	-13	Cc1cc(NC(=O)Nc2ccccc2F)ccc1Br
/	/	/	/	/	0	CO[C@@H]1CN(C)C(=O)c2cc(NS(C)(=O)=O)ccc2OC[C@H](C)N(C(=O)C2CCCCC2)C[C@@H]1C
-10	2	1	-6	9	-11	S=c1nc(Cc2ccccc2)[nH]c2ccccc12
-4	2	8.9*	5	-8	/	S=c1nc(Cc2ccc(Cl)cc2)[nH]c2ccccc12
-6	-4	9.0*	-5	9	-4	COc1ccc2[nH]c(O)c(N=NC(=O)c3ccc(NS(=O)(=O)c4cccs4)cc3)c2c1
16	3	8.9*	-14	8	-6	CCOc1ccc(/C=C/C(=O)Nc2ccc(N3CCOCC3)cc2)cc1
0	18	5	6	-2	/	COc1ccc(/C=C/C(=O)OCC(=O)Nc2ccc(N3CCOCC3)cc2)cc1
/	/	/	/	/	-26	COc1ccc(NC(=O)N(C)C[C@@H]2Oc3ccc(NS(C)(=O)=O)cc3CC(=O)N([C@H](C)CO)C[C@@H]2C)cc1
/	/	/	/	/	-10	CN1CCN(C(=O)C[C@H]2C=C[C@@H](NC(=O)Cc3ccccn3)[C@@H](CO)O2)CC1
/	/	/	/	/	0	O=C(NCC[C@H]1CC[C@@H](NC(=O)c2ccc3c(c2)OCO3)[C@@H](CO)O1)Nc1cc(F)ccc1F
4	-4	0	-6	2	-11	CC(=O)Oc1ccc(-c2ccc(C(=O)O)cc2)cc1
4	26*	0	-11	3	-2	CC(=O)c1ccc(S(=O)(=O)Oc2ccc(-c3ccc(C(=O)O)cc3)cc2)cc1
-1	-3	2	0	-2	-9	C=C1CCN(Cc2ccccc2)S(=O)(=O)c2ccccc21
0	24*	-2	-7	-6	-6	O=C1CCN(Cc2ccccc2)S(=O)(=O)c2ccccc21
-2	-83	0	-6	1	-35	Cc1nc2ccc(NC(=O)[C@@H](NC(=O)c3c(F)cccc3F)C(C)C)cc2s1
-3	-3	8.6*	-14	-1	-5	CC(C)[C@H](NC(=O)c1c(F)cccc1F)C(=O)Nc1cccc(Br)c1
3	27*	0	-15	-21	12	Cc1cc(C(=O)N/N=C/C=C/c2ccc3c(c2)OCO3)n[nH]1
9	6	-1	5	1	-3	O=C(N/N=C\C=C\c1ccc2c(c1)OCO2)c1ccc(F)cc1
-3	25*	1	-5	7	-11	CC(C)(C)N(NC(=O)Nc1ccccc1)C(=O)c1ccccc1Cl
2	52*	-1	2	1	-12	CC(C)c1ccc(OCC(=O)NCc2ccccc2)cc1
-3	6	0	5	10	/	CC(C)c1ccc(CNC(=O)CCc2ccccc2)cc1
7	7	0	8	4	3	C[C@@H](NC(=O)c1nc[nH]c1C(=O)NCCCCCNC(=O)OC(C)(C)C)c1ccccc1
6	-2	-1	1	15	-16	CC1CCN(C(=O)c2[nH]cnc2C(=O)N[C@H](C)c2ccccc2)CC1
3	28*	-2	13	10	15	C[C@H](NC(=O)c1nc[nH]c1C(=O)NCCCCCNC(=O)OC(C)(C)C)c1ccccc1
13	-6	2	6	-1	0	O=C(Nc1ccccc1F)c1nc[nH]c1C(=O)NCc1ccccc1
2	22*	-1	7	3	-2	C[C@@H](NC(=O)c1nc[nH]c1C(=O)N1CCN(c2ccccc2)CC1)c1ccccc1
8	28*	-1	24	7	6	C[C@H](NC(=O)c1nc[nH]c1C(=O)NCc1ccc(CNC(=O)OC(C)(C)C)cc1)c1ccccc1

As entered above:
Under ARFGAP1 inh, CC(=O)c1ccc(S(=O)(=O)Oc2ccc(-c3ccc(C(=O)O)cc3)cc2)cc1 has the entry 4
Under MC4R antagonist, CCOc1ccc(/C=C/C(=O)Nc2ccc(N3CCOCC3)cc2)cc1 has the entry 8
Under MC4R antagonist, Cn1nnc2cc(NC(=O)Nc3ccccc3F)ccc21 has the entry 9
Under ARFGAP1 inh, CC1CCCN(C(=O)c2ccc3c(c2NCCO)C(=O)c2ccccc2C3=O)C1 (centres undefined) has the entry -14

3 structures from above, ordered by SMILES length, largest number first:
ARFGAP1 inh	CendR NRP1 mod	MC4R barr agon	ASAP1 inh	MC4R antagonist	UUG fidelity	compound
/	/	/	/	/	0	O=C(NCC[C@H]1CC[C@@H](NC(=O)c2ccc3c(c2)OCO3)[C@@H](CO)O1)Nc1cc(F)ccc1F
3	27*	0	-15	-21	12	Cc1cc(C(=O)N/N=C/C=C/c2ccc3c(c2)OCO3)n[nH]1
-6	-5	-2	7	-1	-3	CCNc1nc(NCC)nc(SCCOC(=O)c2ccccc2)n1

High-throughput results from PubChem BioAssay.
